Laboratory results as given in PubChem BioAssay AID720551 (National Center for Advancing Translational Sciences (NCATS), 2013).
The entries are a selection whose mix differs from that of the whole data set. Calls of active or inactive are those of the source.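 The calls were made as follows: active = maximum activity change below -70%; inconclusive = maximum activity change between -70% and -50%; inactive = maximum activity change above -50%.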

The chains behind the UniProt entries cited, without tags or fusion partners.
UniProt Q12809, whole entry: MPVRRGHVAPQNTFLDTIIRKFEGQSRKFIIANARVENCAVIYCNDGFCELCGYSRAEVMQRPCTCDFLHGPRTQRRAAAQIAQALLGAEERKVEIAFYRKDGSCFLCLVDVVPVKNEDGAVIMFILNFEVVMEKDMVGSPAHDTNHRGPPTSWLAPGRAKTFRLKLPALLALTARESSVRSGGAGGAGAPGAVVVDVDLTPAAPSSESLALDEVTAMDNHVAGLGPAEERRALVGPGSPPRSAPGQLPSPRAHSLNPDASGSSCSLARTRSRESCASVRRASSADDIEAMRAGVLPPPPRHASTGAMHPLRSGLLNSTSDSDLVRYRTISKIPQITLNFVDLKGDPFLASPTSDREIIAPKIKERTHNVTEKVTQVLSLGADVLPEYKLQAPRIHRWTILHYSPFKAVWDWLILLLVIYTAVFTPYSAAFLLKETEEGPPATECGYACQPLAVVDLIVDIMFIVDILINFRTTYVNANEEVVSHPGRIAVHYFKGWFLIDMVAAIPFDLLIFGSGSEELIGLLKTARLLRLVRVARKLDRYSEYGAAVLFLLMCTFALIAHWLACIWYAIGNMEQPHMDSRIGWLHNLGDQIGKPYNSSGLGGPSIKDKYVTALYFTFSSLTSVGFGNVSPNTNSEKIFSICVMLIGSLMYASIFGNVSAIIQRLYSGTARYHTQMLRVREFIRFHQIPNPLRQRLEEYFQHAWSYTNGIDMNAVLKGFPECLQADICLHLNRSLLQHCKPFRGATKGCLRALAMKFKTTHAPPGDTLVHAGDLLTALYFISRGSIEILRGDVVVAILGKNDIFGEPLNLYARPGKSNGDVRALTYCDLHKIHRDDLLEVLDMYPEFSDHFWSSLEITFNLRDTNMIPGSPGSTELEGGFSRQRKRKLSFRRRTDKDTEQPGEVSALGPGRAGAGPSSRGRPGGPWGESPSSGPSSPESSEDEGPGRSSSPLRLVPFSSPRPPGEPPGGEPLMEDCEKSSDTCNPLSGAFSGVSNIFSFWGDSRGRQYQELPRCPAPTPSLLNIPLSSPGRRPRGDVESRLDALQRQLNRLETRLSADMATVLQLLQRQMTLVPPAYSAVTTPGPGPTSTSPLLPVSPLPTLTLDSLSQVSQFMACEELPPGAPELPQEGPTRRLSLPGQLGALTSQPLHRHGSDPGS

molecular target: Voltage-gated inwardly rectifying potassium channel KCNH2 (Homo sapiens) (UniProt Q12809); assay: qHTS for Inhibitors of KCHN2 3.1: Wildtype qHTS; conditions: U2OS, BacMam KCNH2, thallium flux FluxOr; at 1.84 µM; hits give low values
From the text: Many antipsychotic drugs that inhibit the neurotransmitter dopamine also bind to hERG1 channel which might help explain their antipsychotic activity but also produces cardiac side effects. The discovery of the novel KCNH2 3.1 isoform offers a potential new target for the development of antipsychotic drugs without cardiac side effects. This proposal will use a high throughput thallium flux assay developed for KCNH2 to screen compounds that modulate the activity of KCNH2 3.1. The wild type KCNH2 channel will also be screened in parallel to help define the selective modulators of this KCNH2 3.1 potassium channel. The resulting compounds will be validated in electrophysiology experiments. The availability of animal models will allow future testing in vivo for effects on memory and other aspects of animal physiology linked with psychosis. NIH Chemical Genomics Center [NCGC] NIH Molecular Libraries Probe Centers Network [MLPCN] MLPCN Grant: MH096539 Assay Submitter (PI): James Barrow, Johns Hopkins University, Lieber Institute for Brain Development
U2OS cells were resuspended in cell media containing 10% fetal calf serum (FCS) at a concentration of 2 million cells / mL. The solution was treated with the Wild-type virus at 2.03 x 10^8 / mL and allowed to incubate at room temperature in the dark. After 4 hours of incubation, DMEM + 10% fetal bovine serum (FBS) was added to the cell solution. Three microliter was then dispensed into a 1536 tissue culture treated black assay plates which were incubated overnight at 37 C. Two microliter of loading buffer (HBSS + HEPES + Red40 dye quencher + FluxOr dye) was added and the assay plates were incubated for 45 min at room temperature in the dark. […] A stimulation buffer was added to the plate and the second kinetic read (2 min) was obtained. The rate constant was calculated from the kinetic reads and normalized to the positive and negative DMSO controls.
% is scaled to controls: 0 for no effect and ±100 for the full control effect.

| SMILES | activity change |
| --- | --- |
| O=C(OCCN1CCN(CCOCc2ccccc2)CC1)C(O)(c1ccccc1)c1ccccc1 | inactive: 37.6% |
| CP(=O)(Nc1ccccc1F)Oc1ccccc1 (stereo not given) | inactive: 4.42% |
| CC(C)c1ccc(OP(C)(=O)Nc2ccc(SC(F)(F)F)cc2)cc1 (stereo not given) | inactive: 13.5% |
| Cc1c([N+](=O)[O-])cc([N+](=O)[O-])c(Br)c1[N+](=O)[O-] | inactive: 3.98% |
| CCN(CC)CCCOC(=O)C(O)(c1ccccc1)C1CCCCC1 (stereo not given) | inactive: 0.3% |
| CP(=O)(Nc1ccccc1)Oc1ccc(F)cc1 (stereo not given) | inactive: 7.27% |
| CCCCCOc1ccc(NP(C)(=O)Oc2ccc(Cl)cc2Cl)cc1 (stereo not given) | inactive: 2.76% |
| CCOC(=O)c1ccc(NP(C)(=O)Oc2ccc(F)cc2)cc1 (stereo not given) | inactive: -9.47% |
| COc1ccc(OP(C)(=O)Nc2ccc(SC(F)(F)F)cc2)cc1 (stereo not given) | inactive: -4.83% |
| O=[N+]([O-])c1ccc(OP2(=O)COCCO2)cc1 (stereo not given) | inactive: -3.88% |
| Cc1cc(-c2cccc3ccccc23)c(C)cn1.O=[N+]([O-])c1cc([N+](=O)[O-])c(O)c([N+](=O)[O-])c1 | inactive: -16.3% |
| Cc1c(C(c2ccc3c(c2)OCO3)c2c(C)n(C)n(-c3ccccc3)c2=O)c(=O)n(-c2ccccc2)n1C.O=[N+]([O-])c1cc([N+](=O)[O-])c(O)c([N+](=O)[O-])c1 | inactive: 5.48% |
| COc1ccc(OP(C)(=O)Nc2cccc(Br)c2)cc1 (stereo not given) | inactive: 0.921% |
| CN(C)CCOC(=O)C(O)(c1ccccc1)C1CCCCC1 (stereo not given) | inactive: 5.98% |
| COc1ccc(NP(C)(=O)Oc2ccccc2OC)cc1 (stereo not given) | inactive: 0.13% |
| CP(=O)(Nc1ccc2c(c1)OCCO2)Oc1ccccc1 (stereo not given) | inactive: 5.81% |
| Cc1ccccc1NP(C)(=O)Nc1ccccc1C | inactive: 1.21% |
| CP(=O)(Nc1ccc(SC(F)(F)F)cc1)Oc1ccc(F)cc1 (stereo not given) | inactive: -0.353% |
| CCOP(C)(=S)SCC(=O)NC(C)(CC)C(=O)O (stereo not given) | inactive: -3.53% |
| COc1ccccc1OP(C)(=O)Nc1ccccc1Br (stereo not given) | inactive: 2.53% |
| CC(C)(C)c1ccc(OP(C)(=O)O)cc1 | inactive: -2.85% |
| CP(=O)(Nc1ccc(Cl)cc1)Oc1ccc(F)cc1 (stereo not given) | inactive: -0.755% |

| SMILES | activity change |
| --- | --- |
| CCN(CC)CC(O)COC(=O)C(O)(c1ccccc1)C1CCCCC1 (stereo not given) | inactive: 1.11% |
| COc1ccc(OP(C)(=O)Nc2ccc(Br)cc2)cc1 (stereo not given) | inactive: 6.5% |
| COc1ccccc1OP(C)(=O)Nc1c(C)n(C)n(-c2ccccc2)c1=O (stereo not given) | inactive: 19.4% |
| O=C(OCCCN1CCCC1)C(O)(c1ccccc1)C1CCCCC1 (stereo not given) | inactive: 5.01% |
| CP(=O)(Oc1ccccc1)N1CCOC1=O (stereo not given) | inactive: 1.9% |
| CCc1ccc(OP(C)(=O)Nc2cccnc2)cc1 (stereo not given) | inactive: 0.0408% |
| Nc1ccc2c(ccc3cccnc32)n1.O=[N+]([O-])c1cc([N+](=O)[O-])c(O)c([N+](=O)[O-])c1 | inactive: -1.47% |
| CCOC(=O)c1ccc(NP(C)(=O)Oc2ccc(Cl)cc2)cc1 (stereo not given) | inactive: -2.34% |
| CP(=O)(OC12CC3CC(CC(C3)C1)C2)OC12CC3CC(CC(C3)C1)C2 | inactive: 12.3% |
| CP(=O)(Nc1ccc(Cl)cc1Cl)Oc1ccccc1 (stereo not given) | inactive: -8.58% |
| CCCCCCCCCCCCCCCC1C[N+](C)(C)CCOP(C)(=O)O1 (stereo not given) | inactive: -18.2% |
| CP(=O)(OCCOc1ccccc1)OCCOc1ccccc1 | inactive: -12.6% |
| Cc1cc(C)cc(OP(C)(=O)Nc2cccc(C(F)(F)F)c2)c1 (stereo not given) | inactive: -1.49% |
| COc1ccccc1OP(C)(=O)Nc1ccc(C)c(C)c1 (stereo not given) | inactive: -5.9% |
| COc1ccc(OP(C)(=O)Nc2ccccc2Br)cc1 (stereo not given) | inactive: -5.35% |
| Cc1c(NP(C)(=O)Oc2ccc(C(C)C)cc2)c(=O)n(-c2ccccc2)n1C (stereo not given) | inactive: -3.54% |
| O=[N+]([O-])c1cc([N+](=O)[O-])c(Nc2ccccn2)c([N+](=O)[O-])c1 | inactive: 1.13% |
| CP(=O)(Nc1ccccn1)Oc1ccccc1 (stereo not given) | inactive: 0.551% |
| COc1ccccc1OP(C)(=O)Nc1ccc(C)cc1C (stereo not given) | inactive: 5.75% |
| CCc1ccc(OP(C)(=O)O)cc1 | inactive: 7.27% |
| COc1ccccc1OP(C)(=O)Nc1ccc(Br)cc1 (stereo not given) | inactive: -8.31% |
| COc1ccc(OP(C)(=O)Nc2ccccn2)cc1 (stereo not given) | inactive: 4.9% |

| SMILES | activity change |
| --- | --- |
| CN(C)CCOC(=O)C(O)(c1ccccc1)C1CCCC1 (stereo not given) | inactive: -18.4% |
| CCN(CC)CCCOC(=O)C(O)(c1ccccc1)c1ccccc1 | inactive: -16.6% |
| COc1ccccc1OP(C)(=O)Nc1ccc(C)cc1 (stereo not given) | inactive: -2.56% |
| Cc1ccc(NP(C)(=O)Oc2ccccc2)c(C)c1 (stereo not given) | inactive: -5.2% |
| CCOC(=O)c1ccc(NP(C)(=O)Oc2ccccc2)cc1 (stereo not given) | inactive: 3.37% |
| Cc1cc(C)cc(OP(C)(N)=O)c1 (stereo not given) | inactive: 3.48% |
| COc1ccccc1OP(C)(=O)Nc1cc(Cl)ccc1C (stereo not given) | inactive: -2.39% |
| COc1ccc(OP(C)(=O)Nc2cccc(F)c2)cc1 (stereo not given) | inactive: 5.55% |
| O=[N+]([O-])c1cc([N+](=O)[O-])c(Nc2cccnc2)c([N+](=O)[O-])c1 | inactive: 1.6% |
| O=[N+]([O-])c1ccc2c(c1)C=Nc1ccccc1O2 | inactive: 7.29% |
| CC(C)(C)c1ccc(OP(C)(=O)Nc2ccc(SC(F)(F)F)cc2)cc1 (stereo not given) | inactive: 0.0658% |
| Cc1cccc(C)c1OP(C)(N)=O (stereo not given) | inactive: 9.94% |
| CP(=S)(Nn1cnnc1)Oc1ccccc1 (stereo not given) | inactive: -4.89% |
| CP(=O)(Nc1ccccc1Br)Oc1ccccc1 (stereo not given) | inactive: -3.81% |
| COc1ccccc1OP(C)(=O)Nc1ccccc1 (stereo not given) | inactive: -1.83% |
| CCOC(=O)c1ccc(NP(C)(=O)Oc2ccc(OC)cc2)cc1 (stereo not given) | inactive: 6.16% |
| O=[N+]([O-])c1cc([N+](=O)[O-])c(O)c([N+](=O)[O-])c1.c1ccc(Oc2ccncc2)cc1 | inactive: -4.09% |
| CCOP(C)(=S)SCC(=O)NC(C)C(=O)O (stereo not given) | inactive: -1.02% |
| CP(=O)(Nc1ccccn1)Oc1ccc(Cl)cc1 (stereo not given) | inactive: 5.35% |
| Cc1cccc(C)c1OP(C)(=O)Nc1ccc(SC(F)(F)F)cc1 (stereo not given) | inactive: -7.6% |
| CP(=O)(Nc1ccc(SC(F)(F)F)cc1)Oc1ccc(Cl)cc1 (stereo not given) | inactive: -3.05% |
| CP(=O)(Oc1ccccc1)OC(c1ccccc1)C(F)(F)F (stereo not given) | inactive: 0.446% |

| SMILES | activity change |
| --- | --- |
| CP(=O)(NC(=O)Nc1ccccc1)Oc1ccccc1 (stereo not given) | inactive: -3.69% |
| CCc1ccc(OP(C)(=O)N2CCN(c3ccc([N+](=O)[O-])cc3)CC2)cc1 (stereo not given) | inactive: 6.57% |
| Cc1cc(C)cc(OP(C)(=O)Nc2ccc(SC(F)(F)F)cc2)c1 (stereo not given) | inactive: -8.43% |
| O=[N+]([O-])c1cc([N+](=O)[O-])c(-c2cnn(-c3ccccc3)c2)c([N+](=O)[O-])c1 | inactive: 0.672% |
| Cc1nc2ccc3ccccc3c2s1.O=[N+]([O-])c1cc([N+](=O)[O-])c(O)c([N+](=O)[O-])c1 | inactive: -8.73% |
| O=[N+]([O-])c1cc([N+](=O)[O-])c(-n2nnc3ccccc32)c([N+](=O)[O-])c1 | inactive: -19% |
| COc1ccccc1OP(C)(=O)Nc1c(C)cccc1C (stereo not given) | inactive: 15% |
| CN1CCCCC1COC(=O)C1(O)c2ccccc2CCc2ccccc21 (stereo not given) | inactive: 10.3% |
| CCCOc1ccc(NP(C)(=O)Oc2ccc(Cl)cc2)cc1 (stereo not given) | inactive: -3.05% |
| CP(=O)(Nc1ccc(SC(F)(F)F)cc1)Oc1ccccc1 (stereo not given) | inactive: 2.84% |
| CC1=C2N=C(C=C3N=C(C(C)=C4[N-][C@@](C)([C@@H]5N=C1[C@](C)(CCC(=O)NC[C@@H](C)OP(=O)([O-])O[C@H]1[C@@H](O)[C@@H](n6cnc7cc(C)c(C)cc76)O[C@@H]1CO)[C@H]5CC(N)=O)[C@@](C)(CC(N)=O)[C@@H]4CCC(N)=O)[C@@](C)(CC(N)=O)[C@@H]3CCC(N)=O)C(C)(C)[C@@H]2CCC(N)=O.[C-]#N.[Co+3] | inactive: 6.09% |
| O=[N+]([O-])c1cc([N+](=O)[O-])c(Nc2nnnn2CCO)c([N+](=O)[O-])c1 | inactive: 5.61% |
| CC1=NCCc2c1[nH]c1ccccc21.O=[N+]([O-])c1cc([N+](=O)[O-])c(O)c([N+](=O)[O-])c1 | inactive: 4.44% |
| Cc1ccc(C)c(NP(C)(=O)Oc2ccccc2)c1 (stereo not given) | inactive: 8.42% |
| Cc1cc(C)cc(OP(C)(=O)Nc2ccccn2)c1 (stereo not given) | inactive: -9.78% |
| CP(=O)(Nc1cccc(Br)c1)Oc1ccccc1 (stereo not given) | inactive: 2.16% |
| COc1ccccc1OP(C)(=O)Nc1cccc(Br)c1 (stereo not given) | inactive: -0.569% |
| CCOC(=O)c1ccc(NP(C)(=O)Oc2cc(C)cc(C)c2)cc1 (stereo not given) | inactive: -0.0439% |
| Cc1cc(C)cc(OP(C)(=O)Nc2ccc(C)cc2C)c1 (stereo not given) | inactive: -10.1% |
